# In US20150089682A1, “ALS Inhibitor Herbicide Tolerant B. Napus Mutants” (priority 2012, published 2015):
# Protein sequences, listed by entry. Tags and fused reporters are not part of them. Residues count along the entry.
# UniProt P17597, 56-670 E575Q/S653N: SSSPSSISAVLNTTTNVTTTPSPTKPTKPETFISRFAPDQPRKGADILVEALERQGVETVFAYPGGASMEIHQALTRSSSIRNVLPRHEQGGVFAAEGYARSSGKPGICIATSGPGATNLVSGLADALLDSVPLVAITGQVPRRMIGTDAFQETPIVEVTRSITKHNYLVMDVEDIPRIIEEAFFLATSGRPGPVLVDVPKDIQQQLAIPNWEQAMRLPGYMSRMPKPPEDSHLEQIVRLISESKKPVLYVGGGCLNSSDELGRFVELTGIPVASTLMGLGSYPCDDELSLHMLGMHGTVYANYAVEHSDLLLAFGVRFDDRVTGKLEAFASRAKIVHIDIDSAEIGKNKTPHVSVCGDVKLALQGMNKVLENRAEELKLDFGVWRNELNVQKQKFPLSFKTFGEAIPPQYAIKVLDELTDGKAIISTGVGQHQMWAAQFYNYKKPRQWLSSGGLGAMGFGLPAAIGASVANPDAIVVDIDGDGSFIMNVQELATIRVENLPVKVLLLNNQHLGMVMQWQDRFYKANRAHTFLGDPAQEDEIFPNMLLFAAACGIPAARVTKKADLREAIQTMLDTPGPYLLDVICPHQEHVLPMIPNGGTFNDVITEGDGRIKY
# Biological target: Arabidopsis thaliana S653N-mutant ALS (Arabidopsis thaliana, UniProt P17597, E575Q/S653N)
# Conditions: relative to WT; from measured pI50
compound,measurement,value
"COC(=O)c1ccc(C(F)(F)F)nc1S(=O)(=O)NC(=O)Nc1nc(OC)cc(OC)n1 [Flupyrsulfuron-methyl, flupyrsulfuron-methyl-sodium]",Resistance Factor S653N,3
